Earlier results on one substance are cited in PMC3726369.

Chains of the proteins cited; added tags and fusions are not shown. Residues count along the entry.
UniProt P23945, 18-695: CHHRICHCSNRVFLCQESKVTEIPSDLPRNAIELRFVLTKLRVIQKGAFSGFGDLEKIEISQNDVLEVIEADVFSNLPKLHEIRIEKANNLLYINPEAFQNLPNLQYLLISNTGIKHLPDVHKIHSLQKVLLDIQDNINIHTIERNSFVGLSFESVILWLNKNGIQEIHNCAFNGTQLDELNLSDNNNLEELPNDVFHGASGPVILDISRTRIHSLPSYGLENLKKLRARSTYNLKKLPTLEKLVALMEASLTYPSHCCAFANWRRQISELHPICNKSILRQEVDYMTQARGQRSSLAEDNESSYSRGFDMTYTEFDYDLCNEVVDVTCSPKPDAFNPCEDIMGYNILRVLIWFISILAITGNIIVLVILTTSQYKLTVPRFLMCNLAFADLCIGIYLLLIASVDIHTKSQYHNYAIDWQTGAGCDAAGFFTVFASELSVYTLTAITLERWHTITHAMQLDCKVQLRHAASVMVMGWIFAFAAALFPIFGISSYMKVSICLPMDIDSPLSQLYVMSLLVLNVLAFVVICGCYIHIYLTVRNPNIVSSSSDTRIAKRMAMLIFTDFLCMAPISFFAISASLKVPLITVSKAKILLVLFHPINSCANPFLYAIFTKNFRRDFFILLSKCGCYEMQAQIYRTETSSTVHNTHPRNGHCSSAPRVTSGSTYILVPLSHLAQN
UniProt P01215, 25-116: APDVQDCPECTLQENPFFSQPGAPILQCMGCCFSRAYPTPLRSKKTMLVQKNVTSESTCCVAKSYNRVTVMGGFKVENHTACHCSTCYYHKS

“And” between values parts separate entries of the source, which are not always exact repeats. Equal values may be shown once. Read-outs that look alike come from different tables or passages of the source.

For data set [1], the target named is FSH receptor (Homo sapiens) (UniProt P23945).
For data set [2] the target is unchanged. The experiment in a line: given as Ka.

For the substance FSH (from UniProt P01215), the Kd in data set [1] was 0.15 nM and 0.94 nM; in data set [2] it was 0.333 nM.

As a reminder, the Kd is a measure of binding affinity in units of concentration.
